Test results as given in article PMC5048153, “Scaffold Hopping Toward Agomelatine: Novel 3, 4-Dihydroisoquinoline Compounds as Potential Antidepressant Agents” (Scientific Reports, 2016).

Chains of the proteins cited; added tags and fusions are not shown. Residues count along the entry.
UniProt P28335, 33-458: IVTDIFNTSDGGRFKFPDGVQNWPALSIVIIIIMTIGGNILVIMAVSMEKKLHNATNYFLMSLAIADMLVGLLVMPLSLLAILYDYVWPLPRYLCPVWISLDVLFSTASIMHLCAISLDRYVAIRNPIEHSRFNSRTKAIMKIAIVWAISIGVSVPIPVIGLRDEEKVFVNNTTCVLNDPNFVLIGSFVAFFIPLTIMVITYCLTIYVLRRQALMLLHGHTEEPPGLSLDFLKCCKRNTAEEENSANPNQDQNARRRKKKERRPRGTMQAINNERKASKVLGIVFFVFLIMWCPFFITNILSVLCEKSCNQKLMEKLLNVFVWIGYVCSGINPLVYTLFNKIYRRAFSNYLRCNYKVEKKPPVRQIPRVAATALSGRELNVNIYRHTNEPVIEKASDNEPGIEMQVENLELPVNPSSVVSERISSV

Target: 5-HT2C receptor (Homo sapiens, UniProt P28335)
Experiment: FLIPR assay for 5-HT2C antagonism
Format: cell-based
Settings: FLIPR calcium flux

SMILES: COc1ccc2cccc(CCNC(C)=O)c2c1 [Agomelatine]
- IC50: 8.51 µM
